Source: ChEMBL document CHEMBL1150292, “4-benzyl-1H-imidazoles with oxazoline termini as histamine H3 receptor agonists” (J Med Chem, 2008)

Protein sequences, listed by entry. Tags and fused reporters are not part of them. Lines headed by an entry give the natural chain unless they say otherwise; changes in a name come on top.
UniProt Q9Y5N1: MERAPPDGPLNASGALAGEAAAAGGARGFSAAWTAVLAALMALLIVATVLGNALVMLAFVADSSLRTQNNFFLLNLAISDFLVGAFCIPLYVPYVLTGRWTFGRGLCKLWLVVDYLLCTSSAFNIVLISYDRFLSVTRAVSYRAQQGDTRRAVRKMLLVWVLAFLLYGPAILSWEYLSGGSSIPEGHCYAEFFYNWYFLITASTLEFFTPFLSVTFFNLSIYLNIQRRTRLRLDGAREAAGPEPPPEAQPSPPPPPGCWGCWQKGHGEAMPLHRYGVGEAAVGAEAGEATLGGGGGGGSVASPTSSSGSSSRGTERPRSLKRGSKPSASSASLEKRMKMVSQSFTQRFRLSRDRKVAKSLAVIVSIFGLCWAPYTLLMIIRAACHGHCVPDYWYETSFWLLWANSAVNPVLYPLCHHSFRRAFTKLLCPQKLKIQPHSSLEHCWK

Target: Histamine H3 receptor (Homo sapiens, UniProt Q9Y5N1)
Experiment: Displacement of [3H]N-alpha-methylhistamine from human histamine H3 receptor expressed in CHO cells
Type: cell-based

SMILES: NC(=NCc1ccc(Cl)cc1)SCCCc1cnc[nH]1 [CLOBENPROPIT]
- Ki: 0.339 nM
